Consider 1 compound from ChEMBL document CHEMBL2057196, “Discovery of a novel class of potent human deoxyuridine triphosphatase inhibitors remarkably enhancing the antitumor activity of thymidylate synthase inhibitors” (J Med Chem, 2012).

The experiment deals with T1, Deoxyuridine 5'-triphosphate nucleotidohydrolase, mitochondrial (Homo sapiens, UniProt P33316).
T1 sequence (P33316 whole entry): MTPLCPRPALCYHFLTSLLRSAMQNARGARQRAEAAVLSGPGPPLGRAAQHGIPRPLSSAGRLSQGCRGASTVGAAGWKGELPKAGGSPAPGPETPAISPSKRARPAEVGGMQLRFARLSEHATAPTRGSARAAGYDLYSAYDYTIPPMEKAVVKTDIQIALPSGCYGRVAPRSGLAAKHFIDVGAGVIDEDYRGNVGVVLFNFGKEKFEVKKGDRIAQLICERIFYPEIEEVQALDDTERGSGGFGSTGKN
The experiment in a line: Inhibition of human dUTPase assessed as production of [5-3H]dUMP from [5-3H]dUTP after 15 mins measured by HPLC analysis.

SMILES strings stand for the structures.

`CC(C)(CCCOCn1ccc(=O)[nH]c1=O)NS(=O)(=O)c1ccccc1`: the IC50 was determined as 3.9 µM.
